# Literature values, collected in publication PMC10629879, “Endocytosis of insulin at the blood-brain barrier” (Frontiers in drug delivery, 2022).
# System: blood-brain barrier
# Conditions: ref Banks et al., 1999; cited from earlier work
# Excerpt: Transport of insulin across the BBB is unidirectional (from blood to brain) ([Duffy and Pardridge, 1987]; [Schwartz et al., 1991]; [Cashion et al., 1996]), occurs in a saturable manner ([Schwartz et al., 1991]; Banks et al., 1997a), can occur independent of the endothelial insulin receptor ([Hersom et al., 2018]; [Rhea et al., 2018]), and varies by brain region ([Banks and Kastin, 1998]). […] Additionally, there are regional differences in the ... || To investigate whether monensin pre-treatment in vivo could impact insulin receptor surface binding, we utilized ^125I-S961, which binds to the insulin receptor with high affinity. […] There were no post-hoc differences.
substance,measurement,value
insulin,insulin transport rate of the olfactory bulb relative to the whole brain transport rate (in words),nearly seven times greater
